Molecular target: OKT4, CD4 V3V4-specific mouse monoclonal antibody (Ortho Diagnostic Systems)
Experiment: mutant rsCD4 at 1 ug/ml blocking OKT4 binding to CD4+ cells

Row | Substance | percent block of OKT4 binding to CD4+ cells [%]
1 | rsCD4 mouse/human substitution mutant AA240-AA252 (V3) (from UniProt P01730 26-400) (receptor) | 60
2 | rsCD4 mouse/human substitution mutant AA127-AA134 (V2) (from UniProt P01730 26-400) (receptor) | 60
3 | rsCD4 mouse/human substitution mutant AA220-AA226 (V3) (from UniProt P01730 26-400) (receptor) | 60
4 | rsCD4 mouse/human substitution mutant AA121-AA124 (V2) (from UniProt P01730 26-400) (receptor) | 60

Reference: JP2007175055A
